Results: patent US20100204263A1, “METHOD OF TREATING MULTIDRUG RESISTANT CANCERS” (priority 2007, published 2010)

How the values were obtained:
[1] = system: P388 (murine leukemia) cell lines and a P388 cell line selected for resistance to doxorubicin; settings: resistant P388 (MDR; p-glycoprotein) vs P388; MTT
[2] = system: MCF7 (human breast cancer) cell lines and a MCF7 cell line selected for resistance to doxorubicin; settings: resistant MCF7 (MDR; p-glycoprotein) vs MCF7; clonogenic

SMILES: COc1cccc2c1C(=O)c1c(O)c3c(c(O)c1C2=O)C[C@@](O)(C(C)=O)C[C@@H]3O[C@H]1C[C@H](N)[C@H](O)[C@H](C)O1 [Daunorubicin, daunorubicin]
- LC50 increase in resistant cell line [1]: 2 log units
- LC50 increase in resistant cell line [2]: 2 log units
